# Values quoted from earlier work as cited in article PMC3561363, “A Novel Retro-Inverso Peptide Inhibitor Reduces Amyloid Deposition, Oxidation and Inflammation and Stimulates Neurogenesis in the APPswe/PS1ΔE9 Mouse Model of Alzheimer’s Disease” (PLoS ONE, 2013).
# System: AD patients
# Conditions: results late 2012; cited from earlier work
substance,measurement,value
Bapineuzumab: Bapineuzumab (Johnson and Johnson),effect in AD patients,no significant effect on AD patients
